In PMC3198786, “LL37 and Cationic Peptides Enhance TLR3 Signaling by Viral Double-stranded RNAs” (PLoS ONE, 2011):

Test system: BEAS2B cells
Assay: WST-1 viability of BEAS2B cells
Assay type: cell-based, human
Conditions: KR18-37 4 µM, mCRAMP 5 µM, data not shown
Description: Supplementary file pone.0026632.s002.tif: Figure S2 Effects of LL37 concentration on viability of BEAS2B cells±poly(I:C). Cell viability was assessed using the WST-1 assay (Clontech, Mountain View CA). After treatments, cells were incubated with WST-1 substrate for 4 h and absorbance was measured at 450 nm with 630 nm as reference. The readout performed in the absence of LL37 (i.e. Control) is defined as 100%. […] The graph is representative of five experiments. […] (TIF) Click here for additional data file.

mCRAMP was tested, and the “Cytotoxicity in BEAS2B cells” value was “no cytotoxicity was detected”.
